Assay results from article PMC2847587 (Molecular cell, 2010).
Values belong to the binder of their own block, whether it stands above or below them.

Target: T1, FANCA (human (endogenous in HeLa), UniProt O15360 1-1455)
T1 sequence (looked up): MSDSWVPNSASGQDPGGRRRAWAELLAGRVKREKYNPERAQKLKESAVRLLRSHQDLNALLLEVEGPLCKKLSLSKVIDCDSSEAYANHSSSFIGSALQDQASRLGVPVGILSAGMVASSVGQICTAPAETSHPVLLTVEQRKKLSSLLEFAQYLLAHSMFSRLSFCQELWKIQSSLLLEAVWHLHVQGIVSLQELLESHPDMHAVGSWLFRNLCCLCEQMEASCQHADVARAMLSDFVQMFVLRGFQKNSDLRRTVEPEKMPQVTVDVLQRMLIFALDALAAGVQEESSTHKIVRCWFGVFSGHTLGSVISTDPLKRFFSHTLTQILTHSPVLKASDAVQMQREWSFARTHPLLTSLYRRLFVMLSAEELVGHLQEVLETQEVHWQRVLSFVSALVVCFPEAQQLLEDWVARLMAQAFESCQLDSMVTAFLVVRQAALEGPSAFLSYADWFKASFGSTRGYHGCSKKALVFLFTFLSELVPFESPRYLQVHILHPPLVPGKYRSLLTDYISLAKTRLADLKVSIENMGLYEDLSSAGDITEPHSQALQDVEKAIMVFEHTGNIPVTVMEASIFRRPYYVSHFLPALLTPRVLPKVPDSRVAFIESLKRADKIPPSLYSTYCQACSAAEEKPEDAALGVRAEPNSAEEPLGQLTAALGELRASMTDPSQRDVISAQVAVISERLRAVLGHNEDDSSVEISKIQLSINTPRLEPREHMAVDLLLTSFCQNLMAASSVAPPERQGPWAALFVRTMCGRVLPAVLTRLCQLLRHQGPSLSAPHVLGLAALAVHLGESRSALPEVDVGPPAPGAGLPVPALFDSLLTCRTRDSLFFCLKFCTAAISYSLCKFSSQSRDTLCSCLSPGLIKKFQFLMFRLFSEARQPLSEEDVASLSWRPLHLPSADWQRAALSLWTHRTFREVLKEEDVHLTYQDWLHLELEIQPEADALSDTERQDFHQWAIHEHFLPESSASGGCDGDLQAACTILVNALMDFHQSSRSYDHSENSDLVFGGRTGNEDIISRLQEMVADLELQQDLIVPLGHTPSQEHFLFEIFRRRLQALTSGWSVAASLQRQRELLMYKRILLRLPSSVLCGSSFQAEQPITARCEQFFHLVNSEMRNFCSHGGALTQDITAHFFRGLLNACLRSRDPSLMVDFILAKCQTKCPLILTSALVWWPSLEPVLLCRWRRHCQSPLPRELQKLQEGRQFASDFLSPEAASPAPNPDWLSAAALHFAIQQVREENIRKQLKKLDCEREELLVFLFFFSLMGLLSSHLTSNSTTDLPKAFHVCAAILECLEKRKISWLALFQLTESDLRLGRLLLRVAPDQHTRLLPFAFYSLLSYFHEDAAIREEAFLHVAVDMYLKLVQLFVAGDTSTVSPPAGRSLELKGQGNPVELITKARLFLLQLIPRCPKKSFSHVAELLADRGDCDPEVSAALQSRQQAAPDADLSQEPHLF
Assay: immunodepletion

percent co-depleted: < 30%
B1: MHF2 (FANCM-associated Histone Fold protein 2) (natural protein, human (endogenous in HeLa), UniProt A8MT69 1-81, looked up)
chain: MEGAGAGSGFRKELVSRLLHLHFKDDKTKVSGDALQLMVELLKVFVVEAAVRGVRQAQAEDALRVDVDQLEKVLPQLLLDF

B2: MHF1 (FANCM-associated Histone Fold protein 1) (natural protein, human (endogenous in HeLa), UniProt Q8N2Z9-1 1-138, looked up)
chain: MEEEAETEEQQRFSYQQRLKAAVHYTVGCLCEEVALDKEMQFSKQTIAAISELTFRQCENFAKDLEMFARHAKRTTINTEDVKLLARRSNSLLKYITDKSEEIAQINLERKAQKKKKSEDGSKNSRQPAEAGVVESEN
percent co-depleted: < 30%
